# Values quoted from earlier work in patent US20240315989A1 (priority 2021, published 2024).
# Sequences of proteins named here, by UniProt entry; tags and fusion partners are left off.
# UniProt Q99720, whole entry: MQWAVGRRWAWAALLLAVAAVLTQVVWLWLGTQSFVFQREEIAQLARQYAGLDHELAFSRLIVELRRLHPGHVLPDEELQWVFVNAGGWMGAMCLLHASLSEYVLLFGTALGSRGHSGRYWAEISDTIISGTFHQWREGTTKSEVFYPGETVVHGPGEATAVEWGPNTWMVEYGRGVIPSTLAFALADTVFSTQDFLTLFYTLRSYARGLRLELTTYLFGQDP
# Biological target: σ1 site (Homo sapiens, UniProt Q99720)
# Conditions: read-out: Affinity for σ1 Site (Ki or KD values); cited from earlier work
smiles,measurement,value
Clc1cc(/C=C\CN2CCCCCC2)ccc1C1CCCCC1,Ki,< 50 nM
